Test results as given in patent US8278343B2, “Pyrrolidines” (Pfizer Inc., priority 2008, dated 2012).

Protein sequences, listed by entry. Tags and fused reporters are not part of them.
UniProt P43116, whole entry: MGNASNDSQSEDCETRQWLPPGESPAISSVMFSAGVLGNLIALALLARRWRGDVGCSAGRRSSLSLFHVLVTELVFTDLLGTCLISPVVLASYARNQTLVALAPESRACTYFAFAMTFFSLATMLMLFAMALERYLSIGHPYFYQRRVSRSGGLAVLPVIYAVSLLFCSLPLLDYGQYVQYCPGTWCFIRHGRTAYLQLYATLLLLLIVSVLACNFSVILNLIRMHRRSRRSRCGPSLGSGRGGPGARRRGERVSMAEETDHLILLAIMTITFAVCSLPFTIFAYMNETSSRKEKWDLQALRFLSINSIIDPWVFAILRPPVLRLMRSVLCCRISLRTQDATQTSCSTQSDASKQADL

target: recombinant human EP-2 receptor (Homo sapiens, UniProt P43116); test: In vitro antagonist potency against recombinant human prostaglandin E2 (EP-2) receptor in CHO cells (cAMP, Protocol 1); conditions: read-out: EP2 Ki; CHO cells expressing recombinant human EP-2 receptor, stimulated with 5 nM PGE2; cAMP readout; Ki by Cheng-Prusoff equation
Description: 1.0 Measurement of In Vitro Antagonist Potency (IC50) of Compounds Against Recombinant Human Prostaglandin E2 Receptor in CHO Cells
The prostaglandin E2 (EP-2) receptor is Gs coupled and agonism of the receptor by PGE2 results in activation of intracellular adenylate cyclase enzymes that synthesise the second messenger signalling molecule, adenosine 3′,5′-cyclic monophosphate (cAMP). CHO cells expressing the recombinant human EP-2 receptor are stimulated with PGE2 (5 nM) equivalent to approximately […] values to give the maximal cAMP signal. Decreases in cAMP levels following treatment of stimulated recombinant EP-2 cells with potential antagonist compounds were measured and potency (IC50) calculated as follows.
A Chinese hamster ovary (CHO) cell line stably transfected with full length cDNA encoding human Prostaglandin E2 was established using standard molecular biology methods. Test compounds were dissolved in dimethyl sulphoxide (DMSO) at 4 mM. 11 point half log unit increment dilution series of test compound were prepared in DMSO then diluted 1 in 40 in a buffer comprised of phosphate buffered saline (PBS) and 0.05% pluronic F-127 surfactant. Freshly cultured cells at 80-90% confluence were harvested and re-suspended in 90% growth media/10% DMSO. The cells were frozen using a planar freezer and stored in frozen aliquots in cryovials in liquid nitrogen until the day of the experiment. A vial of cells was defrosted in a 37° C. water bath for 2 min, then transferred to 10 ml of Dulbecco's Modified Eagle's Medium (DMEM). The cells were then centrifuged for 5 min at 1000 g and the pellet re-suspended at 1,000,000 cells/ml in DMEM. 5,000 cells (5 ul) were added to 5 ul of the compound dilution series in a 384 well assay plate and pre-incubated for 30 min at 37° C. 5 ul of agonist (15 nM PGE2 in PBS to give 5 nM FAC) was added and plates further incubated for 90 min at 37° C. The relative cAMP concentration in each well was then measured using a β-galactosidase enzyme fragment complementation method purchased in kit form as the Discoverx cAMP II kit from GE Healthcare, UK. […] Sigmoidal curves were fitted to plots of log10 inhibitor concentration vs percent effect. IC50 estimates were determined as the concentration of test compound giving an effect half way between the bottom and top asymptotes of the sigmoidal dose response curve. Each experiment included an IC50 determination for the literature compound as a standard to track assay consistency and allow fair comparison between values obtained in different experiments. The EC50 of PGE2 is used in combination with the ligand concentration in the assay to determine Ki values for antagonist dose responses using the Cheng-Prusoff equation. Consequently an agonist dose response curve is carried out for each experiment using the same incubation as the antagonist plate.

Ki | Structure (SMILES)
94.6 nM | N#Cc1ccc(-c2ccc(OCC3(C(=O)O)CCN(C(=O)c4ccc(F)cc4)C3)cn2)cc1 (single isomer, unassigned)
142 nM | O=C(c1ccc(F)cc1)N1CCC(COc2ccc(-c3ncc(F)cn3)cc2)(C(=O)O)C1 (single isomer, unassigned) [22]
89 nM | N#Cc1ccc(-c2ccc(OCC3(C(=O)O)CCN(C(=O)c4ccc(F)cc4)C3)cc2)nc1 (single isomer, unassigned) [20]
0.334 nM | O=C(c1ccc(Cl)cc1)N1CCC(COc2ccc(-c3ccc(Cl)cn3)cc2)(C(=O)O)C1 (single isomer, unassigned) [28]
213 nM | COc1ccccc1C(=O)N1CCC(COc2ccc(-c3ccc(Cl)cn3)cc2)(C(=O)O)C1 (single isomer, unassigned) [77]
979 nM | COc1ccccc1C(=O)N1CCC(COc2ccc(-c3ccc(C#N)cn3)cc2)(C(=O)O)C1 (single isomer, unassigned)
43.8 nM | COc1ccc(C(=O)N2CCC(COc3ccc(-c4ccc(C#N)cc4)cc3)(C(=O)O)C2)cc1 (single isomer, unassigned)
10.9 nM | O=C(c1ccc(F)cc1)N1CCC(COc2ccc(-c3ccc(F)cc3)nc2)(C(=O)O)C1 (single isomer, unassigned) [8]
2.35 nM | N#Cc1ccc(-c2ccc(OCC3(C(=O)O)CCN(C(=O)c4ccc(F)cc4)C3)cc2)nc1 (single isomer, unassigned) [19]
28.2 nM | O=C(c1ccc(Cl)cc1)N1CCC(COc2ccc(-c3ccc(Cl)cn3)cc2)(C(=O)O)C1 (single isomer, unassigned) [29]
7.29 nM | NC(=O)c1cnc(-c2ccc(OCC3(C(=O)O)CCN(C(=O)c4ccc(F)cc4)C3)cc2)nc1 (single isomer, unassigned)
520 nM | O=C(c1ccc(F)cc1)N1CCC(COc2ccc(-c3ccc(F)cc3)nc2)(C(=O)O)C1 (single isomer, unassigned) [9]
4.09 nM | O=C(c1ccc(F)cc1)N1CCC(COc2ccc(-c3ncc(F)cn3)cc2)(C(=O)O)C1 (single isomer, unassigned) [21]
511 nM | COc1ccccc1C(=O)N1CCC(COc2ccc(-c3ccc(Cl)cn3)cc2)(C(=O)O)C1 (single isomer, unassigned) [78]
42.7 nM | O=C(c1ccc(F)cc1)N1CCC(COc2cnc(-c3ccc(F)cc3)cn2)(C(=O)O)C1 (single isomer, unassigned)
82.1 nM | N#Cc1ccc(-c2ccc(OCC3(C(=O)O)CCN(C(=O)c4ccc(F)cc4)C3)cc2)cc1 (single isomer, unassigned)
